Source: patent US10280144B2, “Pyridazine derivatives as RORc modulators” (Genentech, Inc., priority 2015, dated 2019)
pIC50: −log10 of the molar value.

Amino acid sequences for entries named in this document (tags omitted). Residues count along the entry.
UniProt P51449, 269-508: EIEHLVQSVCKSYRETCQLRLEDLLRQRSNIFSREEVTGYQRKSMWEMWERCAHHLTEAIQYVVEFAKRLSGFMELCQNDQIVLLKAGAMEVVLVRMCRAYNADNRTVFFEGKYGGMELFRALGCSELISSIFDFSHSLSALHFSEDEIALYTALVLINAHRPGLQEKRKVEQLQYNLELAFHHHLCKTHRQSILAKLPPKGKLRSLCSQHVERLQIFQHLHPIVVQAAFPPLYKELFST

Biological target: RORc ligand binding domain (Homo sapiens (Human), UniProt P51449)
Test: In Vitro RORc Ligand Binding Assay
Settings: radioligand 25-[3H]hydroxycholesterol

SMILES | pIC50
CCN(C(=O)c1coc(C(C)(C)O)n1)[C@H](C)[C@@]12CC[C@@H](c3cc(-c4c(F)cccc4F)nnc31)C2(C)C (stereo in doubt) [Compound 206, N-[1-[5-(2,6-difluorophenyl)-11,11-dimethyl-3,4-diazatricyclo[6.2.1.02,7]undeca-2,4,6-trien-1-yl]ethyl]-N-ethyl-2-(1-hydroxy-1-methyl-ethyl)oxazole-4-carboxamide] | 8.17
CCN(C(=O)c1coc(C(C)(C)O)n1)[C@@H](C)[C@@]12CC[C@@H](c3cc(-c4c(F)cccc4F)nnc31)C2(C)C (stereo in doubt) [Compound 207, N-[1-[5-(2,6-difluorophenyl)-11,11-dimethyl-3,4-diazatricyclo[6.2.1.02,7]undeca-2,4,6-trien-1-yl]ethyl]-N-ethyl-2-(1-hydroxy-1-methyl-ethyl)oxazole-4-carboxamide] | 8.80
CC1(C)[C@@H]2CC[C@@]1(NC(=O)OCc1ccccc1)c1nnc(-c3c(F)cccc3F)cc12 [Compound 2, benzyl ((5S,8S)-3-(2,6-difluorophenyl)-9,9-dimethyl-5,6,7,8-tetrahydro-5,8-methanocinnolin-8-yl)carbamate] | 6.65
CN(C(=O)OCc1ccccc1)[C@@]12CC[C@@H](c3cc(-c4c(F)cccc4F)nnc31)C2(C)C [Compound 3, benzyl ((5R,8R)-3-(2,6-difluorophenyl)-9,9-dimethyl-5,6,7,8-tetrahydro-5,8-methanocinnolin-8-yl)(methyl)carbamate] | 7.52
CC(=O)N(C[C@@]12CC[C@@H](c3cc(-c4c(F)cccc4F)nnc31)C2(C)C)c1nnc(C)o1 [Compound 4, N-(((5R,8S)-3-(2,6-difluorophenyl)-9,9-dimethyl-5,6,7,8-tetrahydro-5,8-methanocinnolin-8-yl)methyl)-N-(5-methyl-1,3,4-oxadiazol-2-yl)acetamide] | 6.19
CN(C(=O)OCc1ccccc1)[C@]12CC[C@H](c3cc(-c4c(F)cccc4F)nnc31)C2(C)C [Compound 5, benzyl ((5S,8S)-3-(2,6-difluorophenyl)-9,9-dimethyl-5,6,7,8-tetrahydro-5,8-methanocinnolin-8-yl)(methyl)carbamate] | 6.32
Cc1cc(C(=O)N(CCF)C[C@@]23CC[C@@H](c4cc(-c5c(F)cccc5F)nnc42)C3(C)C)no1 [Compound 8, N-(((5R,8S)-3-(2,6-difluorophenyl)-9,9-dimethyl-5,6,7,8-tetrahydro-5,8-methanocinnolin-8-yl)methyl)-N-(2-fluoroethyl)-5-methylisoxazole-3-carboxamide] | 8.03
CCN(C[C@@]12CC[C@@H](c3cc(-c4c(F)cccc4F)nnc31)C2(C)C)C(=O)c1cccc(O)n1 [Compound 12, N-(((5R,8S)-3-(2,6-difluorophenyl)-9,9-dimethyl-5,6,7,8-tetrahydro-5,8-methanocinnolin-8-yl)methyl)-N-ethyl-6-hydroxypicolinamide] | 7.15
CCN(C(=O)OCc1ccccc1)[C@@]12CC[C@@H](c3cc(-c4c(F)cccc4F)nnc31)C2(C)C [Compound 14, benzyl ((5R,8R)-3-(2,6-difluorophenyl)-9,9-dimethyl-5,6,7,8-tetrahydro-5,8-methanocinnolin-8-yl)(ethyl)carbamate] | 7.53
CC1(C)[C@H]2CC[C@]1(CN(CCC#N)C(=O)c1cccc(=O)[nH]1)c1nnc(-c3c(F)cccc3F)cc12 [Compound 15, N-(2-cyanoethyl)-N-(((5R,8S)-3-(2,6-difluorophenyl)-9,9-dimethyl-5,6,7,8-tetrahydro-5,8-methanocinnolin-8-yl)methyl)-6-oxo-1,6-dihydropyridine-2-carboxamide] | 6.64
CC1(C)[C@H]2CC[C@]1(CN(CC(F)F)C(=O)c1cccc(O)n1)c1nnc(-c3c(F)cccc3F)cc12 [Compound 17, N-(2,2-difluoroethyl)-N-(((5R,8S)-3-(2,6-difluorophenyl)-9,9-dimethyl-5,6,7,8-tetrahydro-5,8-methanocinnolin-8-yl)methyl)-6-hydroxypicolinamide] | 7.29
CCN(C[C@@]12CC[C@@H](c3cc(-c4c(F)cccc4F)nnc31)C2(C)C)C(=O)c1cnc(C)cn1 [Compound 23, N-(((5R,8S)-3-(2,6-difluorophenyl)-9,9-dimethyl-5,6,7,8-tetrahydro-5,8-methanocinnolin-8-yl)methyl)-N-ethyl-5-methylpyrazine-2-carboxamide] | 7.69
CCN(C[C@@]12CC[C@@H](c3cc(-c4c(F)cccc4F)nnc31)C2(C)C)C(=O)c1cnn2cccnc12 [Compound 29, N-(((5R,8S)-3-(2,6-difluorophenyl)-9,9-dimethyl-5,6,7,8-tetrahydro-5,8-methanocinnolin-8-yl)methyl)-N-ethylpyrazolo[1,5-a]pyrimidine-3-carboxamide] | 7.45
CC1(N(C[C@@]23CC[C@@H](c4cc(-c5c(F)cccc5F)nnc42)C3(C)C)C(=O)c2c[nH]c(=O)cn2)CC1 [Compound 34, N-(((5R,8S)-3-(2,6-difluorophenyl)-9,9-dimethyl-5,6,7,8-tetrahydro-5,8-methanocinnolin-8-yl)methyl)-N-(1-methylcyclopropyl)-5-oxo-4,5-dihydropyrazine-2-carboxamide] | 6.87
CCN(C[C@@]12CC[C@@H](c3cc(-c4c(F)cccc4F)nnc31)C2(C)C)C(=O)Cc1cnccn1 [Compound 37, N-(((5R,8S)-3-(2,6-difluorophenyl)-9,9-dimethyl-5,6,7,8-tetrahydro-5,8-methanocinnolin-8-yl)methyl)-N-ethyl-2-(pyrazin-2-yl)acetamide] | 7.62
CCN(C[C@@]12CC[C@@H](c3cc(-c4c(F)cccc4F)nnc31)C2(C)C)C(=O)c1cnc(N)cn1 [Compound 39, 5-amino-N-(((5R,8S)-3-(2,6-difluorophenyl)-9,9-dimethyl-5,6,7,8-tetrahydro-5,8-methanocinnolin-8-yl)methyl)-N-ethylpyrazine-2-carboxamide] | 7.55
CCN(C[C@@]12CC[C@@H](c3cc(-c4ccccc4F)nnc31)C2(C)C)C(=O)c1c[nH]c(=O)cn1 [Compound 40, N-ethyl-N-(((5R,8S)-3-(2-fluorophenyl)-9,9-dimethyl-5,6,7,8-tetrahydro-5,8-methanocinnolin-8-yl)methyl)-5-oxo-4,5-dihydropyrazine-2-carboxamide] | 7.52
CC1(C)[C@H]2CC[C@]1(CN(CC(F)F)C(=O)c1ccc(=O)[nH]c1)c1nnc(-c3c(F)cccc3F)cc12 [Compound 42, N-(2,2-difluoroethyl)-N-(((5R,8S)-3-(2,6-difluorophenyl)-9,9-dimethyl-5,6,7,8-tetrahydro-5,8-methanocinnolin-8-yl)methyl)-6-oxo-1,6-dihydropyridine-3-carboxamide] | 7.12
CCN(C[C@@]12CC[C@@H](c3cc(-c4c(F)cccc4F)nnc31)C2(C)C)C(=O)c1cnn[nH]1 [Compound 45, N-(((5R,8S)-3-(2,6-difluorophenyl)-9,9-dimethyl-5,6,7,8-tetrahydro-5,8-methanocinnolin-8-yl)methyl)-N-ethyl-1H-1,2,3-triazole-5-carboxamide] | 7.55
CCN(C[C@@]12CC[C@@H](c3cc(-c4c(F)cccc4F)nnc31)C2(C)C)C(=O)c1n[nH]c(=O)[nH]1 [Compound 46, N-(((5R,8S)-3-(2,6-difluorophenyl)-9,9-dimethyl-5,6,7,8-tetrahydro-5,8-methanocinnolin-8-yl)methyl)-N-ethyl-5-oxo-4,5-dihydro-1H-1,2,4-triazole-3-carboxamide] | 7.37
CCN(C[C@@]12CC[C@@H](c3cc(-c4c(F)cccc4F)nnc31)C2(C)C)C(=O)C1(O)COC1 [Compound 49, N-(((5R,8S)-3-(2,6-difluorophenyl)-9,9-dimethyl-5,6,7,8-tetrahydro-5,8-methanocinnolin-8-yl)methyl)-N-ethyl-3-hydroxyoxetane-3-carboxamide] | 7.52
CCN(C[C@@]12CC[C@@H](c3cc(-c4c(F)cccc4F)nnc31)C2(C)C)C(=O)C1CCCN1C(N)=O (stereo partly drawn) [Compound 50, N2-(((5R,8S)-3-(2,6-difluorophenyl)-9,9-dimethyl-5,6,7,8-tetrahydro-5,8-methanocinnolin-8-yl)methyl)-N2-ethylpyrrolidine-1,2-dicarboxamide] | 6.94
CCN(C[C@@]12CC[C@@H](c3cc(-c4c(F)cccc4F)nnc31)C2(C)C)C(=O)Cc1nnn[nH]1 [Compound 51, N-(((5R,8S)-3-(2,6-difluorophenyl)-9,9-dimethyl-5,6,7,8-tetrahydro-5,8-methanocinnolin-8-yl)methyl)-N-ethyl-2-(1H-tetrazol-5-yl)acetamide] | 7.35
CCN(C[C@@]12CC[C@@H](c3cc(-c4c(F)cccc4F)nnc31)C2(C)C)C(=O)CN1CCNC(=O)C1 [Compound 53, N-(((5R,8S)-3-(2,6-difluorophenyl)-9,9-dimethyl-5,6,7,8-tetrahydro-5,8-methanocinnolin-8-yl)methyl)-N-ethyl-2-(3-oxopiperazin-1-yl)acetamide] | 7.12
CCN(C[C@@]12CC[C@@H](c3cc(-c4c(F)cccc4F)nnc31)C2(C)C)C(=O)CCC1NC(=O)NC1=O (stereo partly drawn) [Compound 54, N-(((5R,8S)-3-(2,6-difluorophenyl)-9,9-dimethyl-5,6,7,8-tetrahydro-5,8-methanocinnolin-8-yl)methyl)-3-(2,5-dioxoimidazolidin-4-yl)-N-ethylpropanamide] | 7.42
CCN(C[C@@]12CC[C@@H](c3cc(-c4c(F)cccc4F)nnc31)C2(C)C)C(=O)Cn1ccc(=O)[nH]c1=O [Compound 55, N-(((5R,8S)-3-(2,6-difluorophenyl)-9,9-dimethyl-5,6,7,8-tetrahydro-5,8-methanocinnolin-8-yl)methyl)-2-(2,4-dioxo-3,4-dihydropyrimidin-1(2H)-yl)-N-ethylacetamide] | 7.13
CCN(C[C@@]12CC[C@@H](c3cc(-c4c(F)cccc4F)nnc31)C2(C)C)C(=O)CC1NC(=O)c2ccccc21 (stereo partly drawn) [Compound 56, N-(((5R,8S)-3-(2,6-difluorophenyl)-9,9-dimethyl-5,6,7,8-tetrahydro-5,8-methanocinnolin-8-yl)methyl)-N-ethyl-2-(3-oxoisoindolin-1-yl)acetamide] | 7.45
